Assay results: paper PMC4696747, “A Streamlined, Automated Protocol for the Production of Milligram Quantities of Untagged Recombinant Rat Lactate Dehydrogenase A Using ÄKTAxpress^TM” (PLoS ONE, 2015)

Target: untagged recombinant rat lactate dehydrogenase A (rat) (UniProt P04642)
Test: SEC-MALS; 100 uL of 1 mg/mL rLDHA on Superdex-200 10/300 GL in Buffer-C (100 mM HEPES pH 7.5, 150 mM NaCl), 22°C, 0.5 mL/min; homo-polymer model

A stoichiometry N of 4 was found for “untagged recombinant rat lactate dehydrogenase A (from UniProt P04642 1-332) (enzyme)” in this work.
